Laboratory results reported in paper PMC11956013, “Structure–Activity Relationships and Evaluation of 2-(Heteroaryl-cycloalkyl)-1H-indoles as Tauopathy Positron Emission Tomography Radiotracers” (Journal of Medicinal Chemistry, 2025).

Chains of the proteins cited; added tags and fusions are not shown. Lines headed by an entry give the natural chain unless they say otherwise; changes in a name come on top. Residues count along the entry.
UniProt P10636, 623-695 limits assumed: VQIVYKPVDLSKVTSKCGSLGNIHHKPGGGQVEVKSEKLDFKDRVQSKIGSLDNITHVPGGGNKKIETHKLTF
UniProt P10636, 623-708 limits assumed: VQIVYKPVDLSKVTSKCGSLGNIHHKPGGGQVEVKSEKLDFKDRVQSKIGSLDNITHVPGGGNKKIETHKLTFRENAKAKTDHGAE
UniProt P17787, 26-502: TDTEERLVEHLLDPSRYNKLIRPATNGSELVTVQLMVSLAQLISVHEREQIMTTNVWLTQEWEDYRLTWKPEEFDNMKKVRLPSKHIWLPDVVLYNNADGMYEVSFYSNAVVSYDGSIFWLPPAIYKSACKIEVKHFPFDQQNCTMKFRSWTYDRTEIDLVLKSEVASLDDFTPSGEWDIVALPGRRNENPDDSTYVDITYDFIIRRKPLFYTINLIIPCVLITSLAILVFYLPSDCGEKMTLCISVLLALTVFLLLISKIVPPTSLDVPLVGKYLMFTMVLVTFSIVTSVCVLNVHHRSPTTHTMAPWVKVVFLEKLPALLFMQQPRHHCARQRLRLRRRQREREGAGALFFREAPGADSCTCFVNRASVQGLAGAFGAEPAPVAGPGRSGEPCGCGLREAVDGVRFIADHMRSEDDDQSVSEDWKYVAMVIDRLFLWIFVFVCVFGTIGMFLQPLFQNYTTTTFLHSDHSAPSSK
UniProt P43681, 29-627: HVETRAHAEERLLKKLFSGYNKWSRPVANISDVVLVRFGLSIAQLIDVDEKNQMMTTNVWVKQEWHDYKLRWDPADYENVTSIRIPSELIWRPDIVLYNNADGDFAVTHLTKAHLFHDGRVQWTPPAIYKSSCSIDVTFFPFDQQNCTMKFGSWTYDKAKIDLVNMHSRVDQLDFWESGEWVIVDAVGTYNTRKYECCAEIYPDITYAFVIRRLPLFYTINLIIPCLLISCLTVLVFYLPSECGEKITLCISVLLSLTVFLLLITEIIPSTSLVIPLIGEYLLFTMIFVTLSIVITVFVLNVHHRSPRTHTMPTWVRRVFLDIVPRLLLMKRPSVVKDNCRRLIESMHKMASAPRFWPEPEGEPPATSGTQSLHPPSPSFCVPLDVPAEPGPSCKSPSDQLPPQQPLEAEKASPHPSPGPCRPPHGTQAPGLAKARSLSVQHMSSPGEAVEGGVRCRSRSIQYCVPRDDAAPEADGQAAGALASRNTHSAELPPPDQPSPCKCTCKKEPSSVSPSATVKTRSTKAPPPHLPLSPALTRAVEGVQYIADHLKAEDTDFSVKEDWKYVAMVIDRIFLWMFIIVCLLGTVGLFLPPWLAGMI
UniProt P06213, 28-1382: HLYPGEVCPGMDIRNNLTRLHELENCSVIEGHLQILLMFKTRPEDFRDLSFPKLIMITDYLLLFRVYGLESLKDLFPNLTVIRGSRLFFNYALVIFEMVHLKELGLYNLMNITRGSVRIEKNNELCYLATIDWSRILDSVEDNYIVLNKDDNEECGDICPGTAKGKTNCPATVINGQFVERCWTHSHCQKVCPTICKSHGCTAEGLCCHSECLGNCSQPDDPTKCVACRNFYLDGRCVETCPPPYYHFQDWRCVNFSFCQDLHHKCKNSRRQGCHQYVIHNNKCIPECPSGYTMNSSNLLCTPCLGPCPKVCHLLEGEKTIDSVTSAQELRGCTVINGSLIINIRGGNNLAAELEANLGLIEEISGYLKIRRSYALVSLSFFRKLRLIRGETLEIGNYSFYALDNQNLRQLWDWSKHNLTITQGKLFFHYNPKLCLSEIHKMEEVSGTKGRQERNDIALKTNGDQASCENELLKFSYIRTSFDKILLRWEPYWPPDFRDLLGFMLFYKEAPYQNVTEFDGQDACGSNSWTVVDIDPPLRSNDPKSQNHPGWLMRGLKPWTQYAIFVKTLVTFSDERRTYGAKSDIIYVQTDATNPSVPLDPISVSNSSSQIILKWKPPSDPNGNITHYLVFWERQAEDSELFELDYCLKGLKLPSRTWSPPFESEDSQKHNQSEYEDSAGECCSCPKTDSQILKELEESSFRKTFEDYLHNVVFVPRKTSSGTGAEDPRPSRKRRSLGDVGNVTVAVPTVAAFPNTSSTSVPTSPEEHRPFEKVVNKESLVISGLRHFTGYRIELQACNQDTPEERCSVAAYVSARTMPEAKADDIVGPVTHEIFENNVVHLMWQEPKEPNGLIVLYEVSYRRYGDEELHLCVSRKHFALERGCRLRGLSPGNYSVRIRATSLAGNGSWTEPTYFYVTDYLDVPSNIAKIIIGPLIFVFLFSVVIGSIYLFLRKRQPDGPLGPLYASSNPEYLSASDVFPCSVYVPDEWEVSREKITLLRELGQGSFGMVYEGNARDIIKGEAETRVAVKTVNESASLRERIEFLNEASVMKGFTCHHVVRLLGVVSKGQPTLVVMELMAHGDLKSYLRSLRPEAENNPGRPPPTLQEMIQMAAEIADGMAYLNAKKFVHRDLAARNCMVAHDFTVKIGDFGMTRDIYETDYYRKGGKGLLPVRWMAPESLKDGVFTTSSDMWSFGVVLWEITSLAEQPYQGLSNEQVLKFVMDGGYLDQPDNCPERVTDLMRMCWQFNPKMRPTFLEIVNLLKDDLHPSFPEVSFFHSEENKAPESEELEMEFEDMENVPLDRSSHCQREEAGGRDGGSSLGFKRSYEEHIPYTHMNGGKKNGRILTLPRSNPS
UniProt P05067, 672-713 limits assumed: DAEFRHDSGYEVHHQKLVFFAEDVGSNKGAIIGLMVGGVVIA
UniProt P35368, whole entry: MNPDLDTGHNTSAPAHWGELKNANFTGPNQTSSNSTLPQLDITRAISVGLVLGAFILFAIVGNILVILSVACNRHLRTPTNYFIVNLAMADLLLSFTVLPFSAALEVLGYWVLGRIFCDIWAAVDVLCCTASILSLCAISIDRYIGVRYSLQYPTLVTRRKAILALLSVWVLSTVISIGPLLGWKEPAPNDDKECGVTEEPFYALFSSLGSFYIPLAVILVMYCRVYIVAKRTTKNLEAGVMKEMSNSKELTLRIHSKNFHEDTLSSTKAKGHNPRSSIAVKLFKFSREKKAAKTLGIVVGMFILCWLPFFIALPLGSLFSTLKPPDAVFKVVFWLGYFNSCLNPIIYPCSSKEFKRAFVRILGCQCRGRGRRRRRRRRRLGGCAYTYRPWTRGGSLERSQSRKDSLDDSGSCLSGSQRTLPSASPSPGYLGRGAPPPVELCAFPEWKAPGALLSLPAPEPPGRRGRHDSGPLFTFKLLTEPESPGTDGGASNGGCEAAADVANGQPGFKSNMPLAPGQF
UniProt P30536, whole entry: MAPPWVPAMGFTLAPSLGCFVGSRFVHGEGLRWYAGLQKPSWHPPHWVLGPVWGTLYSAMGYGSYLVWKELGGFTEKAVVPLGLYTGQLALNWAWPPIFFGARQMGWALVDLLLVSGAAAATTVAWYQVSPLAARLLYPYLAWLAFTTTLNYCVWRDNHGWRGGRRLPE

Assays:
[1] = molecular target: T1, aggregated tau (4R-tau) in CBD brain tissue homogenates (Homo sapiens, UniProt P10636); assay: biochemical
[2] = molecular target: T1, aggregated tau (4R-tau) in CBD brain tissue homogenates; assay: biochemical; remark: listed apart in the source
[3] = molecular target: T2, aggregated tau (site where 5 binds) in PSP brain tissue homogenates (Homo sapiens, UniProt P10636); assay: In vitro competition (Ki) assay versus [^3H]5, PSP brain tissue homogenate; format: binding
T2 construct: from tissue

[4] = molecular target: aggregated tau (site where 5 binds) in AD brain tissue homogenates (Homo sapiens, UniProt P10636); assay: In vitro competition (Ki) assay versus [^3H]5, AD brain tissue homogenate; format: binding
[5] = molecular target: T3, aggregated tau (site where 5 binds) in CBD brain tissue homogenates (Homo sapiens, UniProt P10636); assay: In vitro competition (Ki) assay versus [^3H]5, CBD brain tissue homogenate; format: binding
T3 construct: from tissue; host or cells: post-mortem human CBD brain, middle frontal gyrus homogenate

[6] = molecular target: N neuronal alpha4beta2 (h) (Homo sapiens, UniProt P17787+P43681); conditions: reference compound
IRK (h) (InsR) = IRK (h) (InsR) (Homo sapiens, UniProt P06213); conditions: Enzymatic activity; reference compound
[7] = molecular target: T4, PiB binding site on amyloid-β in AD brain tissue homogenates (Homo sapiens, UniProt P05067); assay: In vitro competition (Ki) assay versus [^3H]PiB, AD brain tissue homogenate
T4 construct: from tissue; host or cells: post-mortem human AD brain, middle frontal gyrus homogenate

[8] = molecular target: T5, aggregated tau (mixed 3R/4R-tau) in AD brain tissue homogenates (Homo sapiens, UniProt P10636); assay: In vitro competition (Ki) assay versus [^3H]8, AD brain tissue homogenate; format: binding
[9] = molecular target: T6, aggregated tau (4R-tau) in PSP brain tissue homogenates (Homo sapiens, UniProt P10636); assay: In vitro competition (Ki) assay versus [^3H]3, PSP brain tissue homogenate; format: binding
T6 construct: from tissue

[10] = molecular target: T6, aggregated tau (4R-tau) in PSP brain tissue homogenates; assay: In vitro competition (Ki) assay versus [^3H]8, PSP brain tissue homogenate; format: binding
[11] = molecular target: T5, aggregated tau (mixed 3R/4R-tau) in AD brain tissue homogenates; assay: In vitro competition (Ki) assay versus [^3H]3, AD brain tissue homogenate; format: binding
[12] = molecular target: T5, aggregated tau (mixed 3R/4R-tau) in AD brain tissue homogenates; assay: In vitro competition (Ki) assay versus [^3H]7, AD brain tissue homogenate; format: binding
[13] = molecular target: T6, aggregated tau (4R-tau) in PSP brain tissue homogenates; assay: In vitro competition (Ki) assay versus [^3H]7, PSP brain tissue homogenate; format: binding
[14] = molecular target: T1, aggregated tau (4R-tau) in CBD brain tissue homogenates; assay: In vitro competition (Ki) assay versus [^3H]3, CBD brain tissue homogenate; format: binding; set-up: from tissue; host or cells: post-mortem human CBD brain, middle frontal gyrus homogenate
GABA transporter = GABA transporter (Rattus norvegicus, UniProt P23978); conditions: Specific binding; reference compound
alpha1B (h) = alpha1B (h) (Homo sapiens, UniProt P35368); conditions: reference compound
BZDp (TSPO) (h) = BZDp (TSPO) (h) (Homo sapiens, UniProt P30536); assay: Eurofins panel: BZDp (TSPO) (h) (antagonist radioligand)
[15] = PSP brain tissue homogenate, radioligand [^3H]5, read-out: Ki versus [^3H]5, PSP tissue
[16] = AD brain tissue homogenate, radioligand [^3H]5, read-out: Ki versus [^3H]5, AD tissue
[17] = CBD brain tissue homogenate, radioligand [^3H]5, read-out: Ki versus [^3H]5, CBD tissue

SMILES | Ki [1] | Ki [2] | further results
Fc1ccc2cc(-c3cnc(N4CCCCC4)c(F)c3)[nH]c2c1 [Compound 89, 6-Fluoro-2-(5-fluoro-6-(piperidin-1-yl)pyridin-3-yl)-1H-indole] | 8.7 nM |  | 
Fc1ccc2cc(-c3ccc(N4CCCCC4)nc3)[nH]c2c1 [Compound 45, 6-Fluoro-2-(6-(piperidin-1-yl)pyridin-3-yl)-1H-indole] | 5.9 nM | 6.2 nM | Ki [3, 15]: 218 nM; Ki [4, 16]: 188 nM; Ki [5, 17]: 221 nM
Fc1ccc2cc(-c3cnc(N4CCOCC4)c(F)c3)[nH]c2c1 [Compound 90, 4-(3-Fluoro-5-(6-fluoro-1H-indol-2-yl)pyridin-2-yl)morpholine] | 18 nM |  | 
CN1CCC[C@H]1c1cccnc1 [nicotine] |  |  | nH, Specific binding [6]: 0.827
CN[C@@H]1C[C@H]2O[C@@](C)([C@@H]1OC)n1c3ccccc3c3c4c(c5c6ccccc6n2c5c31)C(=O)NC4 [staurosporine] |  |  | nH (IRK (h) (InsR)): 1.241
Fc1cc(-c2cc3ccccc3[nH]2)cnc1N1CCCCC1 [Compound 95, 2-(5-Fluoro-6-(piperidin-1-yl)pyridin-3-yl)-1H-indole] | 14 nM |  | 
Fc1ccc2cc(-c3ccc(N4CCCCC4)nc3F)[nH]c2c1 [Compound 81, 6-Fluoro-2-(2-fluoro-6-(piperidin-1-yl)pyridin-3-yl)-1H-indole] | 26 nM |  | 
Fc1ccc2cc(-c3cc(F)c(N4CCOCC4)cn3)[nH]c2c1 [Compound 106, 4-(4-Fluoro-6-(6-fluoro-1H-indol-2-yl)pyridin-3-yl)morpholine] | 56 nM |  | 
OC1CN(c2ncc(-c3cc4ccc(F)cc4[nH]3)cn2)CC1F (stereo not drawn) [Compound 27, 4-Fluoro-1-(5-(6-fluoro-1H-indol-2-yl)pyrimidin-2-yl)pyrrolidin-3-ol] | 10 nM | 9 nM | Ki [3, 15]: 219 nM; Ki [4, 16]: 214 nM; Ki [5, 17]: 273 nM
Fc1nc(N2CCOCC2)ccc1-c1cc2ccccc2[nH]1 [Compound 75, 4-(6-Fluoro-5-(1H-indol-2-yl)pyridin-2-yl)morpholine] | 11 nM | 13 nM | Ki [7]: 61 ± 3 nM; Ki [8]: 6.5 nM; Ki [9]: 28 nM; Ki [10]: 10 nM; Ki [3]: 335 nM; Ki [4]: 203 nM; Ki [11]: 22 nM; Ki [12]: 9.2 nM; Ki [13]: 10 nM; Ki [14]: 30 nM; Ki [5]: 360 nM
Fc1cc(N2CCCCC2)cnc1-c1cc2ccccc2[nH]1 [Compound 98, 2-(3-Fluoro-5-(piperidin-1-yl)pyridin-2-yl)-1H-indole] | 16 nM |  | 
Fc1ccc2[nH]c(-c3cnc(N4CCOCC4)nc3)cc2c1 [Compound 78, 4-(5-(5-Fluoro-1H-indol-2-yl)pyrimidin-2-yl)morpholine] | 10 nM |  | 
FCCOCCOC1CCN(c2ncc(-c3cc4ccccc4[nH]3)cn2)CC1 [Compound 108, 2-(2-(4-(2-(2-Fluoroethoxy)ethoxy)piperidin-1-yl)pyrimidin-5-yl)-1H-indole] | 30 nM | 39 nM | 
O=C(O)C1CCCNC1 (stereo not drawn) [nipecotic acid] |  |  | nH (GABA transporter): 1.27
Fc1ccc2cc(-c3cnc(N4CCOCC4)cn3)[nH]c2c1 [Compound 87, 4-(5-(6-Fluoro-1H-indol-2-yl)pyrazin-2-yl)morpholine] | 8.2 nM |  | 
Fc1ccc2cc(-c3ccc(N4CCOCC4)nc3)[nH]c2c1 [Compound 46, 4-(5-(6-Fluoro-1H-indol-2-yl)pyridin-2-yl)morpholine] | 12 nM | 11 nM | Ki [3, 15]: 227 nM; Ki [4, 16]: 185 nM; Ki [5, 17]: 229 nM
Fc1ccc2cc(-c3cnc(N4CC[C@@H](F)C4)nc3)[nH]c2c1 [Compound (R)-43, (R)-6-Fluoro-2-(2-(3-fluoropyrrolidin-1-yl)pyrimidin-5-yl)-1H-indole] | 20 nM | 15 nM | 
Fc1cc(-c2cc3ccccc3[nH]2)ncc1N1CCOCC1 [Compound 105, 4-(4-Fluoro-6-(1H-indol-2-yl)pyridin-3-yl)morpholine] | 49 nM |  | 
Fc1ccc2cc(-c3cnc(N4CCCCC4)nc3)[nH]c2c1 [Compound 21, 6-Fluoro-2-(2-(piperidin-1-yl)pyrimidin-5-yl)-1H-indole] | 12 nM | 6.3 nM | Ki [3, 15]: 185 nM; Ki [4, 16]: 182 nM; Ki [5, 17]: 189 nM
COc1cc2nc(N3CCN(C(=O)c4ccco4)CC3)nc(N)c2cc1OC [prazosin] |  |  | nH, Specific binding (alpha1B (h)): 1.079
Fc1cc(N2CCOCC2)cnc1-c1cc2ccccc2[nH]1 [Compound 103, 4-(5-Fluoro-6-(1H-indol-2-yl)pyridin-3-yl)morpholine] | 22 nM |  | 
Fc1cc(N2CCOCC2)ncc1-c1cc2ccccc2[nH]1 [Compound 94, 4-(4-Fluoro-5-(1H-indol-2-yl)pyridin-2-yl)morpholine] | 12 nM |  | 
Fc1cc(-c2cc3ccccc3[nH]2)cnc1N1CCOCC1 [Compound 96, 4-(3-Fluoro-5-(1H-indol-2-yl)pyridin-2-yl)morpholine] | 9.5 nM |  | 
Fc1ccc2[nH]c(-c3ccc(N4CCOCC4)nc3)cc2c1 [Compound 79, 4-(5-(5-Fluoro-1H-indol-2-yl)pyridin-2-yl)morpholine] | 7.7 nM |  | 
CCC(C)N(C)C(=O)c1cc2ccccc2c(-c2ccccc2Cl)n1 (stereo not drawn) [PK 11195] |  |  | IC50 (BZDp (TSPO) (h)): 11.9 nM; Ki (BZDp (TSPO) (h)): 10.9 nM
O=C1CCN(c2ncc(-c3cc4ccc(F)cc4[nH]3)cn2)CC1 [Compound 44, 1-(5-(6-Fluoro-1H-indol-2-yl)pyrimidin-2-yl)piperidin-4-one] | 15 nM | 17 nM | 
COC1CCN(c2ncc(-c3cc4ccc(F)cc4[nH]3)cn2)CC1 [Compound 42, 6-Fluoro-2-(2-(4-methoxypiperidin-1-yl)pyrimidin-5-yl)-1H-indole] | 14 nM | 8.2 nM | 

Like-named read-outs stand apart in the source and are kept apart here.
